Values quoted from earlier work, collected in patent US12485106B2, “Methods of treating fibrotic liver diseases or conditions with indeglitazar” (PLEIOGENIX INC., priority 2023, dated 2025).

Conditions: clinical studies, patients; cited from earlier work

insulin
incidence of edema: 7.0%
